Reference: patent US20060094649A1, “Hla-a1,-a2,-a3,-a24,-b7, and-b44 tumor associated antigen peptides and compositions” (priority 2002, published 2006)

Key:
HLA-B*4402 = HLA-B*4402 (Homo sapiens, UniProt P01889, A223V/A65T/A93T/A95T/D201E/D98Y/E176V/E187L/E204Q/E69K/G107R/H137Y/K202T/L105A/L119I/N104T/N87E/Q56L/Q94N/R106L/R155S/R180D/S101N/S121R/S35A/S48T/T118I/V36M/W191S/Y140D/Y91S); test: Class I peptide-binding assay, HLA-B*4402 (B44 supertype); settings: CEA-derived B44 peptides; read-out: B*4402
HLA-B*4001 = HLA-B*4001 (Homo sapiens, UniProt P01889, A65T/A93T/A95T/D138N/D98Y/E176V/E69K/N87E/Q56L/Q94N/R180L/S121R/S35A/S48T/T167S/V36M/W171L/Y33H/Y91S); test: Class I peptide-binding assay, HLA-B*4001 (B44 supertype); settings: read-out: B*4001
HLA-B*4002 = HLA-B*4002 (Homo sapiens, UniProt P01889, A65T/A93T/A95T/D138N/D201E/D98Y/E176V/E204Q/E69K/K202T/N87E/Q56L/Q94N/R180L/S48T/Y33H/Y91S); test: Class I peptide-binding assay, HLA-B*4002 (B44 supertype); settings: read-out: B*4002
[1] = system: HLA-B44 supertype molecules; test: HLA-B44 supertype cross-binding; design: species or system human; settings: number of the six B44 supertype alleles bound
HLA-B*1801 = HLA-B*1801 (Homo sapiens, UniProt P01889, A329T/A93T/A95T/C349S/D201E/D54G/D98Y/E176V/E187T/E204Q/E69T/K202T/Q94N/R155S/R180L/S121R/V306I/Y140S/Y195H/Y33H/Y91S); test: Class I peptide-binding assay, HLA-B*1801 (B44 supertype); settings: read-out: B*1801
[2] = system: peptide-pulsed target cells; test: In vitro primary CTL induction, recognition of peptide-pulsed targets (51Cr release or IFNγ ELISA); format: cell-based, human
[3] = system: HLA-B7 supertype molecules; test: HLA-B7 supertype cross-binding (B*0702, B*3501, B*5101, B*5301, B*5401)
HLA-B*4403 = HLA-B*4403 (Homo sapiens, UniProt P01889, A223V/A65T/A93T/A95T/D201E/D98Y/E176V/E187L/E204Q/E69K/G107R/H137Y/K202T/L105A/L119I/N104T/N87E/Q56L/Q94N/R106L/R155S/R180L/S101N/S121R/S35A/S48T/T118I/V36M/W191S/Y140D/Y91S); test: Class I peptide-binding assay, HLA-B*4403 (B44 supertype); settings: read-out: B*4403
HLA-B*4501 = HLA-B*4501 (Homo sapiens, UniProt P01889, A329T/A65T/A93T/A95T/C349S/D138N/D201E/D98Y/E176V/E187L/E204Q/E69K/H137Y/K202T/L119W/N87E/Q56L/Q94N/R155S/R180D/S121R/S35A/S48T/V127L/V306I/V36M/W191S/Y140L/Y33H/Y91S); test: Class I peptide-binding assay, HLA-B*4501 (B44 supertype); settings: read-out: B*4501
[4] = HER2/neu-derived B44 peptides, Table 27, binding to purified HLA-B*4501
[5] = HER2/neu-derived B44 peptides, Table 27, binding to purified HLA-B*1801

SMILES: CC[C@H](C)[C@H](NC(=O)[C@H](Cc1ccccc1)NC(=O)[C@@H]1CCCN1C(=O)[C@H](CCCCN)NC(=O)[C@@H]1CCCN1C(=O)[C@@H]1CCCN1C(=O)[C@H](CCC(=O)O)NC(=O)[C@H](C)N)C(=O)N[C@H](C(=O)O)[C@@H](C)O
- IC50 (HLA-B*4402): > 10 µM
- IC50 (HLA-B*4001; CEA-derived B44 peptides): 7.07 µM
- IC50 (HLA-B*4002; CEA-derived B44 peptides): 3.44 µM
- Degeneracy [1]: 1
- IC50 (HLA-B*1801; CEA-derived B44 peptides): 14.6 µM

SMILES: C[C@H](N)C(=O)N1CCC[C@H]1C(=O)N[C@@H](C)C(=O)N[C@@H](C)C(=O)N1CCC[C@H]1C(=O)N[C@H](C(=O)N1CCC[C@H]1C(=O)N[C@@H](C)C(=O)N[C@@H](C)C(=O)N1CCC[C@H]1C(=O)N[C@@H](C)C(=O)O)[C@@H](C)O
- Immunogenicity Peptide ([2]; Table 21): 0/1
- Immunogenicity Peptide ([2]; Table 17d): 0/1
- No. B7 supertype alleles crossbound (200) ([3]; Table 21, binding affinity threshold of 200 nM or less): 3
- Number of B7 alleles crossbound ([3]; Table 17d): 3

SMILES: CC(C)C[C@H](NC(=O)[C@H](CCC(=O)O)NC(=O)[C@H](CCCNC(=N)N)NC(=O)[C@H](Cc1ccccc1)NC(=O)[C@H](CCCNC(=N)N)NC(=O)[C@@H]1CCCN1C(=O)[C@H](CCCNC(=N)N)NC(=O)[C@H](CS)NC(=O)[C@H](CCC(=O)O)NC(=O)[C@@H](N)CO)C(=O)O [compound 438]
- IC50 (HLA-B*4501; [4]): 0.025 µM
- IC50 (HLA-B*4001; HER2/neu-derived B44 peptides, Table 27, binding to purified HLA-B*4001): 0.307 µM
- IC50 (HLA-B*4002; HER2/neu-derived B44 peptides, Table 27, binding to purified HLA-B*4002): 0.018 µM
- Degeneracy [1]: 6
- IC50 (HLA-B*1801; [5]): 0.08 µM
- IC50 (HLA-B*4403; HER2/neu-derived B44 peptides, Table 27, binding to purified HLA-B*4403): 0.0002 µM

SMILES: CC(C)C[C@H](NC(=O)[C@H](CCC(=O)O)NC(=O)[C@@H](N)[C@@H](C)O)C(=O)N[C@H](C(=O)N[C@@H](CCC(=O)O)C(=O)N1CCC[C@H]1C(=O)N[C@@H](CC(C)C)C(=O)N[C@H](C(=O)N1CCC[C@H]1C(=O)N[C@@H](CO)C(=O)NCC(=O)N[C@@H](C)C(=O)O)[C@@H](C)O)C(C)C [compound 514]
- IC50 (HLA-B*4501; [4]): 2.74 µM
- IC50 (HLA-B*1801; [5]): 0.167 µM

More lines, main results first:

- IC50 (HLA-B*4001; CEA-derived B44 peptides): > 10 µM
- IC50 (HLA-B*4002; CEA-derived B44 peptides): > 10 µM
- Degeneracy [1]: 1
- IC50 (HLA-B*4403; CEA-derived B44 peptides): > 10 µM
SMILES: C[C@H](NC(=O)[C@H](CCC(=O)O)NC(=O)[C@@H]1CCCN1C(=O)[C@H](CCC(=O)O)NC(=O)[C@@H](N)CS)C(=O)N[C@@H](CCC(N)=O)C(=O)N[C@@H](CC(N)=O)C(=O)N[C@H](C(=O)N[C@H](C(=O)N[C@@H](Cc1ccc(O)cc1)C(=O)O)[C@@H](C)O)[C@@H](C)O

- IC50 (HLA-B*4501; CEA-derived B44 peptides): > 10 µM
- IC50 (HLA-B*4001; CEA-derived B44 peptides): > 10 µM
- IC50 (HLA-B*4002; CEA-derived B44 peptides): > 10 µM
- Degeneracy [1]: 1
- IC50 (HLA-B*4403; CEA-derived B44 peptides): > 10 µM
SMILES: CC(C)C[C@H](NC(=O)[C@H](Cc1ccc(O)cc1)NC(=O)[C@@H](NC(=O)[C@@H](NC(=O)[C@H](CC(N)=O)NC(=O)[C@H](CCC(N)=O)NC(=O)[C@H](C)NC(=O)[C@H](CCC(=O)O)NC(=O)[C@@H]1CCCN1)[C@@H](C)O)[C@@H](C)O)C(=O)N[C@@H](Cc1c[nH]c2ccccc12)C(=O)O

- IC50 (HLA-B*4402): 0.414 µM
- IC50 (HLA-B*4403; CEA-derived B44 peptides): 0.183 µM
SMILES: CC(C)C[C@H](NC(=O)[C@H](Cc1ccc(O)cc1)NC(=O)[C@@H](NC(=O)[C@@H](NC(=O)[C@H](CC(N)=O)NC(=O)[C@H](CCC(N)=O)NC(=O)[C@H](C)NC(=O)[C@H](CCC(=O)O)NC(=O)[C@@H]1CCCN1)[C@@H](C)O)[C@@H](C)O)C(=O)N[C@@H](Cc1c[nH]c2ccccc12)C(=O)N[C@@H](Cc1c[nH]c2ccccc12)C(=O)N[C@H](C(=O)O)C(C)C

- Number of B7 alleles crossbound ([3]; Table 17a, CEA-derived): 4
SMILES: CC[C@H](C)[C@H](N)C(=O)N1CCC[C@H]1C(=O)N[C@@H](Cc1c[nH]c2ccccc12)C(=O)N[C@@H](CCC(N)=O)C(=O)N[C@@H](CCCNC(=N)N)C(=O)N[C@@H](CC(C)C)C(=O)N[C@@H](CC(C)C)C(=O)N[C@@H](CC(C)C)C(=O)N[C@H](C(=O)N[C@H](C(=O)O)[C@@H](C)CC)[C@@H](C)O [compound 130]
- Immunogenicity Peptide ([2]; Table 17a, positive/total tested): 0/1

Like-named read-outs stand apart in the source and are kept apart here. Each block holds one compound with its values, some of them ahead of it.
